We go through one compound from ChEMBL document CHEMBL1137158, “Rational drug design and synthesis of a selective opioid receptor antagonist on the basis of the accessory site concept” (2004).

The species entered for experiment [1] is Mus musculus. Description: Effect (1 ug) on antinociception induced by DPDPE(10 ug) in mouse tail flick test upon i.c.v. treatment; Vehicle value = 59+/-11%. (Hot-plate and tail-flick tests time the reaction to a heat stimulus.)
The species named for experiment [2] is Mus musculus. Description: Effect (1 ug) on antinociception induced by U-50,488H(50 ug) in mouse tail flick test upon i.c.v. treatment; Vehicle value = 48+/-10%.
The species entered for experiment [3] is Mus musculus. Kind of experiment: Effect (1 ug) on antinociception induced by DAMGO(20 ng) in mouse tail flick test upon i.c.v. treatment; Vehicle value = 71+/-10%.

As to `O=C1[C@H]2C[C@@]34C=C[C@]2(OCN1CCc1ccccc1)[C@@H]1Oc2cc(O)cc5c2[C@@]13CCN(CC1CC1)[C@@H]4C5`, the Activity worked out at 68% in the experiment filed under Mus musculus [1], 35% in the experiment listed under Mus musculus [2] and 59% in the experiment listed under Mus musculus [3].
